We go through 8 compounds from US9862707B2, “TrkA kinase inhibitors, compositions and methods thereof” (Merck Sharp & Dohme Corp., priority 2014, dated 2018).

The chains behind the UniProt entries cited, without tags or fusion partners. Residues count along the entry.
UniProt P04629, 33-796: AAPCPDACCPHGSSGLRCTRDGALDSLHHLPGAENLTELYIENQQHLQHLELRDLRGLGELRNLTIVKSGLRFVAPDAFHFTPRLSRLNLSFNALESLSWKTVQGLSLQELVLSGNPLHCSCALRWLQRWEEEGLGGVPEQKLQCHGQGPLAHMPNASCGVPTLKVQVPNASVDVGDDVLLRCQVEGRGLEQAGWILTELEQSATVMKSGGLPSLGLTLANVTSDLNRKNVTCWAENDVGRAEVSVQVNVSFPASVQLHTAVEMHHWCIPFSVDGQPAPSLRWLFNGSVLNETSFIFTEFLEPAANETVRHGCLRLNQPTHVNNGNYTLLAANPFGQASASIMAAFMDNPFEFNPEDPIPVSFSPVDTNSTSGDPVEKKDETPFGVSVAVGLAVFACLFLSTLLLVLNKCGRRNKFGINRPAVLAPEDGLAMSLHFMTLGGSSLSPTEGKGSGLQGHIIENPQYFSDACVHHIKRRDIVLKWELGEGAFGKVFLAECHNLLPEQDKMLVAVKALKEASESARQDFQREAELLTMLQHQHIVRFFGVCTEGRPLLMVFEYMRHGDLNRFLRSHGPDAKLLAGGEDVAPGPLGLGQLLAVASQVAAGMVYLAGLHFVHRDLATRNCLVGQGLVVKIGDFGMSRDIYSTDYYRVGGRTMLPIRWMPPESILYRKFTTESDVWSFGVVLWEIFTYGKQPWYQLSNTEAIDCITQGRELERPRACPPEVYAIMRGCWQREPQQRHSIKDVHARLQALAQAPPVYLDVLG

The assay has as its target human TrkA receptor (Homo sapiens (Human), UniProt P04629). Nature of the assay: TrkA functional activity, DiscoverX PathHunter assay. The format is cell-based. Particulars: U2OS cells expressing human TrkA-PK, Shc1-EA and p75NTR; compound 1 h, then NGF at ~80% of maximal response for 3 h; luminescence.
As usually defined, the IC50 is the concentration at which inhibition is half-maximal. The low end stands for greater potency in that assay, the high end for weaker potency in that assay. Compound `Cn1ccc(-c2cc(C(=O)Nc3c4ccc(C(C)(O)CO)cc4nn3-c3ccccc3)ccc2C(F)(F)F)n1` (single isomer, unassigned) [Compound 62, N-(6-(1,2-Dihydroxypropan-2-yl)-2-phenyl-2H-indazol-3-yl)-3-(1-methyl-1H-pyrazol-3-yl)-4-(trifluoromethyl)benzamide, isomers A and B] displayed an IC50 of 4.9 nM.

Compound `Cn1ccc(-c2cc(C(=O)Nc3c4ccc(C(C)(O)CO)cc4nn3-c3ccccc3)ccc2C(F)(F)F)n1` (single isomer, unassigned) [Compound 63, N-(6-(1,2-Dihydroxypropan-2-yl)-2-phenyl-2H-indazol-3-yl)-3-(1-methyl-1H-pyrazol-3-yl)-4-(trifluoromethyl)benzamide, isomers A and B] returned an IC50 of 15 nM.

In turn, `CC(O)c1ccc2nn(-c3ccccc3)c(NC(=O)c3cc(-c4ncccn4)c(C(F)(F)F)cc3F)c2c1` (single isomer, unassigned; isomer a) [Compound 25, (R or S)-2-fluoro-N-(5-(1-hydroxyethyl)-2-phenyl-2H-indazol-3-yl)-5-(pyrimidin-2-yl)-4-(trifluoromethyl)benzamide, isomer A] yielded an IC50 of 12 nM.

Take `CC(O)c1ccc2nn(-c3ccccc3)c(NC(=O)c3cc(-c4ncccn4)c(C(F)(F)F)cc3F)c2n1` (single isomer, unassigned; isomer a) [Compound 27, (R or S)-2-fluoro-N-[5-(1-hydroxyethyl)-2-phenyl-2H-pyrazolo[4,3-b]pyridin-3-yl]-5-pyrimidin-2-yl-4-(trifluoromethyl)benzamide, isomer A]: the 50% inhibitory concentration (IC50) was 9.5 nM.

With `CC(O)c1cc2nn(-c3ccccc3)c(NC(=O)c3cc(-c4ncccn4)c(C(F)(F)F)cc3F)c2cn1` (single isomer, unassigned; isomer a) [Compound 39, (R or S)-2-fluoro-N-[6-(1-hydroxyethyl)-2-phenyl-2H-pyrazolo[4,3-c]pyridin-3-yl]-5-pyrimidin-2-yl-4-(trifluoromethyl)benzamide, isomer A], the midpoint of inhibition, the IC50, lay at 19 nM.

`CC(O)c1ccc2nn(-c3ccccc3)c(NC(=O)c3cc(-c4ncccn4)c(C(F)(F)F)cc3F)c2c1` (single isomer, unassigned; isomer b) [Compound 26, (R or S)-2-fluoro-N-(5-(1-hydroxyethyl)-2-phenyl-2H-indazol-3-yl)-5-(pyrimidin-2-yl)-4-(trifluoromethyl)benzamide, isomer B]: the IC50 stood at 7.6 nM.

`CC(O)c1ccc2nn(-c3ccccc3)c(NC(=O)c3cc(-c4ncccn4)c(C(F)(F)F)cc3F)c2n1` (single isomer, unassigned; isomer b) [Compound 28, (R or S)-2-fluoro-N-[5-(1-hydroxyethyl)-2-phenyl-2H-pyrazolo[4,3-b]pyridin-3-yl]-5-pyrimidin-2-yl-4-(trifluoromethyl)benzamide, isomer B] displayed a half-maximal inhibitory concentration (IC50) of 15 nM.

In turn, `CC(C)(O)c1cnc2c(NC(=O)c3cc(-c4ncccn4)c(C(F)(F)F)cc3Cl)n(-c3ccccc3)nc2c1` [Compound 49, 2-chloro-N-[6-(1-hydroxy-1-methylethyl)-2-phenyl-2H-pyrazolo[4,3-b]pyridin-3-yl]-5-pyrimidin-2-yl-4-(trifluoromethyl)benzamide] had an IC50 of 4.6 nM.
